Assay [1] concerns the target Guanylate cyclase C (GC-C) (human), P25092. As to the kind of experiment: cell-based or functional assay.
Assay [2] shares this target.

One may read the EC50 as the concentration needed to bring the measured effect to its halfway point. In general, Ki refers to a measure of affinity in units of concentration, obtained from inhibition or displacement.

In the case of CCSLCCNPACTGCY (modifications not checked) [Peptide 1], the half-maximal effective concentration (EC50) at pH 5 (nM), cGMP response of T84 cells in assay [1] is 9.8 nM. In assay [2], this molecule returned a Ki of 1.1 nM.
CCSLCCNPACTGC (modifications not checked) [Peptide 2] registered an EC50 at pH 5 (nM), cGMP response of T84 cells in assay [1] of 10.4 nM. Also, the Ki in assay [2] is 0.6 nM.
CCSLCCNPACTGCY (modifications not checked) [Dephospho-Peptide 1]: the inhibition constant (Ki) in assay [2] was determined as 10.5 nM.
On the same count and under the same terms, for CCSLCCNPACTGC (modifications not checked) [Dephospho-Peptide 2] the value was 4.5 nM.

These data come from patent publication US20150030697A1, “Treatments for gastrointestinal disorders” (published 2015).
